Laboratory results taken from ChEMBL document CHEMBL1128249, “2,4-Diamino-5-substituted-quinazolines as inhibitors of a human dihydrofolate reductase with a site-directed mutation at position 22 and of the dihydrofolate reductases from Pneumocystis carinii and Toxoplasma gondii” (J Med Chem, 1995).

Target: T1, Dihydrofolate reductase (Homo sapiens, UniProt P00374)
T1 sequence (P00374 whole entry): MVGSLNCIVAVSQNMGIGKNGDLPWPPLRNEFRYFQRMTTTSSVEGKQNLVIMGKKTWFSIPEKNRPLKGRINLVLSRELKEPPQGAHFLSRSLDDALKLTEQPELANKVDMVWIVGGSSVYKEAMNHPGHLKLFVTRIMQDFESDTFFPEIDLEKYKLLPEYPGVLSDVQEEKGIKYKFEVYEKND
Assay: Inhibitory compound against Wild-type human DHFR.

Question: How did the Ki turn out when Nc1nc(N)c2c(/C=C/c3ccccc3)cccc2n1 was run?
Answer: 5.4 nM
